Assay results reported in ChEMBL document CHEMBL4610001 (J Med Chem, 2020).

Chains of the proteins cited; added tags and fusions are not shown. Lines headed by an entry give the natural chain unless they say otherwise; changes in a name come on top.
UniProt P61794: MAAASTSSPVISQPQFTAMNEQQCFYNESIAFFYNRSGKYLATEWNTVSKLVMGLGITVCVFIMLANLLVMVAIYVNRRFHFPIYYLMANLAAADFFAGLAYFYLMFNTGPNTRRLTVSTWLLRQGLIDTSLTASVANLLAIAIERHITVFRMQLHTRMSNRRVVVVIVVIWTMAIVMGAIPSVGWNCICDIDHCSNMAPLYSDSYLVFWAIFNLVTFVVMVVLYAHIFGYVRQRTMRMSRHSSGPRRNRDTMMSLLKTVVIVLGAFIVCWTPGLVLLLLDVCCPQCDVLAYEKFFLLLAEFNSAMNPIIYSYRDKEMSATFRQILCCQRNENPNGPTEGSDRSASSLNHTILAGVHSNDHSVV

What was measured:
[1] = biological target: Lysophosphatidic acid receptor 1 (Rattus norvegicus) (UniProt P61794); assay: Induction of LPA1 receptor desensitization in Wistar rat DRG neurons assessed as reduction in calcium influx at 10 uM treated twice after 10 secs in presence of capsaicin by Fluo-4 NW dye based inverted microscopic method; type: functional
Summary of the method: (§1)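 DRG neurons from 3–5-day-old Wistar rats were collagenase-digested and cultured 48 h with NGF. Cells loaded with 5 μM Fluo-4AM and 0.02% pluronic in HEPES-buffered HBSS pH 7.4 for 1 h at 37°C, then perfused at rt. Compound given at 10 μM final (from 10 mM DMSO stock) as 10 s pulses. Capsaicin and 40 mM KCl (10 s, viability) also applied. Signal is peak minus baseline fluorescence; a response is >20% over baseline.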

[2] = biological target: Lysophosphatidic acid receptor 1 (Rattus norvegicus) (UniProt P61794); assay: Agonist activity at LPA1 receptors in Wistar rat DRG neurons assessed as increase in calcium influx at 10 uM measured after 10 secs in presence of capsaicin by Fluo-4 NW dye based inverted microscopic method; type: functional; summary of the method: as §1
[3] = biological target: Lysophosphatidic acid receptor 1 (Rattus norvegicus) (UniProt P61794); assay: Induction of LPA1 receptor desensitization in Wistar rat DRG neurons assessed as reduction in neuronal activity at 10 uM treated for 15 secs twice with 4 mins interval in presence of capsaicin by microelectrode Array
Summary of the method: (§2)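 Neonatal Wistar rat DRG neurons, cultured 48 h on poly-L-lysine/laminin-coated 60-electrode MEA chips. Compound perfused at 10 μM final for 15 s at 2 mL/min. Extracellular activity recorded at 25 kHz; output is mean spike frequency.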

[4] = biological target: Lysophosphatidic acid receptor 1 (Rattus norvegicus) (UniProt P61794); assay: Agonist activity at LPA1 receptors in Wistar rat DRG neurons assessed as increase in neuronal activity at 10 uM incubated for 15 secs in presence of capsaicin by Microelectrode Array; summary of the method: as §2

Measured: Activity

O=C(CCCCCCCCCc1ccccc1)O[C@H](CBr)COP(=O)(O)O
active: all assays above

Active and inactive are the calls of the source.
